The experiment is described as follows: membrane potential modulation in parental HEK293, confirmation, counter-screen for TRPC6 inhibitor project, cell-based (AID 2780).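 Further: plate controls were buffer EC0 wells for no effect and acetylcholine ECmax wells for full effect.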 To be noted: parental HEK293 membrane potential dye fluorescence; at 10 µM.

Only a part is listed here, and it is no random draw. Some results for these compounds are left out of this collection, so the calls shown say nothing about other tests. Activity calls are given as the source filed them.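 How the source made its calls: active means membrane potential signal shifting up or down by more than 3 SD of buffer-only wells, on both duplicate plates; inactive means the rest.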

Regarding `O=C(OC1CN2CCC1CC2)C(CO)(c1ccccc1)c1ccccc1` (stereo unspecified), the membrane potential signal change is active: 1.14%.

The values are drawn from PubChem BioAssay AID2780 (Johns Hopkins Ion Channel Center, 2010).
